From patent US20180140703A1, “TUMOR RADIOSENSITIZATION WITH ANTIBODY CONJUGATES” (The Regents of the University California, priority 2016, published 2018)

Columns and labels:
[1] = test system: OE19 (HER2+) tumour xenografts; test: In vivo tumour xenograft experiments (tumour growth); parameters: species or system mice; conditions: for Tumour doubling time in days (mean, 95% CI): OE19
Description: (§1) Mice were assigned to indicated groups in ‘Results’.

[2] = test system: NCI N87 (HER2+) tumour xenografts; test: as above; parameters: species or system mice
Description: as §1

[3] = test system: HCT116 (HER2−) tumour xenografts; test: as above; parameters: species or system mice
Description: as §1

[4] = test system: HER2+ cell lines; test: Neutral comet assay; assay type: cell-based, human; conditions: HER2+ cells; 20 nM overnight, 2 Gy
Protocol: (§2) Cells were collected 15 min post IR, suspended in agarose gel and lysed per assay directions (Trevigen). Samples underwent electrophoresis under neutral conditions and were then stained with Sybr Green. Comet tails were counted in multiple fields (>60 cells per sample) and analysed using CometScore (TriTek Corp). Comet tail length was normalized to vehicle-treated, non-irradiated cells.

[5] = test system: HER2− cell lines; test: Neutral comet assay; assay type: cell-based, human; conditions: HER2− cells; 20 nM overnight, 2 Gy
Protocol: as §2

[6] = Blood clearance (loss of Cy5 fluorescence in the blood); assay type: in vivo, mice; conditions: Cy5-labelled T-MMAE i.v.
Protocol: (§3) All animal work was done in compliance with the University of California San Diego Institutional Animal Use and Care Committee. Six-to-eight-week-old female athymic nu/nu mice purchased from the University of California San Diego Animal Care Program breeding colony were injected subcutaneously into the bilateral upper thighs with 5×106 CAL-27, SQ9-G, SCC-35, SCC-61, A549, HCT-116, OE19 or LN229 tumour cells in a 1:1 Matrigel (BD) and PBS solution. After tumours grew to >100 mm3 they were injected with 0.5 nmol of Cy-labelled cetuximab-MMAE, trastuzumab-MMAE (.'4 and 3.9 mg kg^−1, respectively) as described above. For imaging, mice were anaesthetized (1:1 mixture of 100 mg ml—1 of ketamine and 5 mg ml—1 of midazolam). Animals were imaged using a Maestro Small Animal Imager (CRI) with excitation filter of 620/22 and 645 nm long-pass emission filter with dichroic filter tuned to 670 nm. Imaging was done both with skin on and after skin removal to decrease autofluorescence and scattering. […] At various time points after injection, the tail was pricked and a small volume (5-10 μl) of blood was collected in a heparinized hematocrit tube. Fluorescent images were taken using the Maestro, with the filters mentioned above, and the integrated fluorescent intensity was measured using Image J.

[7] = test system: HER2 expressing cell lines CALU3, OE19 and BT474; test: Cy5 fluorescence imaging of Cy5-labelled ADC (confocal), HER2 panel; assay type: cell-based, human; conditions: 2 nM Cy5-labelled ADC, 2 h
Protocol: (§4) Cells were exposed to Cy5-labelled cetuximab-MMAE or trastuzumab-MMAE for 30 min in media with 1% serum. Cells were then washed with PBS and incubated in media with 10% serum. At indicated times, cells were fixed in 4% paraformaldehyde and then stained with DAPI. Cells were imaged using a Nikon MR confocal microscope.

[8] = test system: OE19 tumour xenografts; test: Immunohistochemistry of tumour xenografts (pHistone H3, cleaved caspase 3); assay type: in vivo, mice; conditions: after Cy5-labelled C-MMAE or T-MMAE i.v.
Protocol: (§5) Tissue sections were cut from blocks of formalin-fixed paraffin embedded xenografts. Four micron thick tissue sections were stained with antibodies to phosphohistone H3 (pH3, Abcam, catalogue number ab32107) and cleaved caspase-3 (C1C3, Cell Signaling Technology, catalogue number 9661) and used at dilutions of 1:300 and 1:900, respectively. Slides were stained on a Ventana Discovery Ultra (Ventana Medical Systems, Tucson, Ariz., USA). Antigen retrieval was performed using CC1 for 24-40 min at 95° C. The primary antibodies were incubated on the sections for 1 h at 37° C. Primary antibodies were visualized used DAB as a chromagen using the UltraMap system (Ventana Medical systems) followed by hematoxylin as a counterstain. Slides were rinsed, dehydrated through alcohol and xylene and coverslipped.
(§6) Immununostained slides were scanned using an Axio Scan.Z1 (Zeiss; Oberkochen, Germany). […] Whole-slide images were imported into Definiens Software for quantitative analysis (Definiens; Munich, Germany). […] For analysis of pH3 (a nuclear stain), the total number of nuclei and the total number of nuclei showing DAB staining (pH3 positive cells) were recorded within each ROI. The percent of positive nuclei was then calculated for each sample. For analysis of C1C3 (a cytoplasmic stain), mean DAB chromagen intensity was measured and calculated within the ROI for each sample.

[9] = test system: CAL-27 cells; test: ADC cell binding (cell surface, flow cytometry); parameters: species or system human; conditions: on ice, increasing concentrations, Cy5 signal
[10] = test system: HER2 expressing cell lines, OE19, CALU3, and BT474; test: ADC cell binding (cell surface, flow cytometry); parameters: species or system human; conditions: on ice, increasing concentrations, Cy5 signal
Protocol: Cells were collected and resuspended in cold PBS with 5% BSA. Cy5-labelled cetuximab-MMAE or trastuzumab-MMAE was added to the cells at indicated concentrations for 15 min on ice. Cells were washed, resuspended in PBS with 5% BSA and 0.5 ml propidium iodide, and analysed by flow cytometry.

[11] = test system: OE19 tumour xenografts; test: In vivo tumour xenograft optical imaging (Cy5); parameters: species or system mice
Protocol: as §3

[12] = test system: CAL-27 xenografts; test: Tumour xenograft drug measurement (LC-MS/MS); assay type: in vivo, mice; conditions: 2 nmol C-MMAE or T-MMAE i.v.
Protocol: Tumours were excised, weighed and homogenized in 10 volumes of PBS with a point sonicator (Fisher Scientific) using an amplitude range of 5-15% for a maximum of 20 s while on ice. The homogenates were centrifuged (14 g, 10 min), then the supernatants were collected and diluted two-fold by addition of 2% acetic acid in acetonitrile, then centrifuged again (14 g, 10 min). MMAE concentration was determined by LC-MS/MS with Luna-2 C18 column and Agilent Trap XCT mass spectrometer and extracted fragment ion currents at 686.4 and 506.4 were integrated and combined to improve sensitivity.

[13] = test system: OE19 cells (HER2+); test: Neutral comet assay; assay type: cell-based, human; conditions: 6 Gy, 2 nM overnight
Protocol: as §2

[14] = test system: CALU3 (EGFR+, HER2+) cells; test: Neutral comet assay; assay type: cell-based, human; conditions: 6 Gy, 2 nM overnight, vs vehicle or 20 nM antibody
Protocol: as §2

[15] = test system: OE19 cells; test: Cell cycle (propidium iodide, flow cytometry); assay type: cell-based, human; conditions: treated overnight
Protocol: Cells were treated with RNAse, stained with propidium iodide (PI) and analysed by FACS using FloJo software.

[16] = test system: EGFR expressing CAL-27, A549 and CALU3 cells; test: Cy5 fluorescence imaging of Cy5-labelled ADC (confocal), EGFR panel; assay type: cell-based, human; conditions: 2 nM Cy5-labelled ADC, 2 h
Protocol: as §4

[17] = test system: CAL-27 (EGRF+) and OE19 (HER2+) cells; test: Alamar Blue cell viability assay; assay type: cell-based, human; conditions: dose range, 72-96 h
[18] = test system: low EGFR LN-229 tumours; test: In vivo tumour xenograft optical imaging (Cy5); parameters: species or system mice; conditions: 0.5 nmol Cy5-labelled C-MMAE i.v.
Protocol: as §3

[19] = test system: EGFR expressing tumours HNC (CAL-27, SCC-61, SCC-35 and SQ-9G), NSCLC (A549) and colorectal (HCT-116); test: In vivo tumour xenograft optical imaging (Cy5); parameters: species or system mice
Protocol: as §3

[20] = test system: EGFR+ tumour xenografts; test: Immunohistochemistry of tumour xenografts (pS10 histone H3); assay type: in vivo, mice; conditions: harvested 24 h after injection; compared with cetuximab
Protocol: as §5, §6

[21] = test system: CAL-27 (EGFR+) cells; test: Cy5 fluorescence imaging of Cy5-labelled ADC (confocal); assay type: cell-based, human; conditions: 2 nM Cy5-labelled C-MMAE; by 30 min
Protocol: as §4

[22] = 0.25 nmol i.v. day 0 + IR 2.5 Gy days 1, 2 and 3

Substance: trastuzumab: recombinant humanized anti-HER2 monoclonal antibody
- Tumour doubling time in days (mean, 95% CI) [1, 22]: 14 (10-24) days
- Tumour doubling time in days (mean, 95% CI) ([1]; 0.25 nmol i.v. day 0, no IR): 6 (4-8) days
- Tumour doubling time in days (mean, 95% CI) [2, 22]: 19 (16-22) days
- Tumour doubling time in days (mean, 95% CI) ([2]; 0.25 nmol i.v. day 0, no IR): 14 (10-21) days
- Tumour doubling time in days (mean, 95% CI) [3, 22]: 7 (5-12) days
- Tumour doubling time in days (mean, 95% CI) ([3]; 0.25 nmol i.v. day 0, no IR): 4 (2-8) days
- radiosensitization (IR induced DNA double-strand breaks) [4]: did not result in any significant radiosensitization
- radiosensitization (IR induced DNA double-strand breaks) [5]: did not result in any significant radiosensitization

Substance: T-MMAE: monomethyl auristatin E conjugated to trastuzumab via maleimidocaproyl-valine-citrulline linker, labelled with Cy5
- pharmacokinetics (loss of Cy5 fluorescence in the blood) [6]: comparable to that of similar Cy5-labelled antibody alone
- binding by Cy5 fluorescence [7]: high affinity
- tumour growth ([1]; single dose of 1 nmol, compared with control or trastuzumab by day 14): equally efficacious in slowing tumour growth
- pS10 of Histone H3 (G2/M marker) in tumours [8]: increased pS10 of Histone H3 in tumours
- cell surface binding [9]: not
- cell surface binding [10]: dose-dependent binding
- Cy5 signal accumulation within tumours ([11]; 0.5 nmol Cy5-labelled ADC i.v., imaged 48 h later): greater Cy5 signal accumulation within tumours compared with C-MMAE
- Cy5 fluorescence localization in sectioned tumour xenografts ([11]; 0.5 nmol Cy5-labelled T-MMAE i.v.): localized to areas of tumour cells and not stroma
- tumour MMAE concentrations [12]: confirmed restriction of released drug to EGFR+cells by cetuximab conjugation as opposed to trastuzumab conjugation
- comet tail length after irradiation [13]: further increased comet tail length
- comet tail length after irradiation [14]: increased comet tail length to a similar degree

Substance: C-MMAE: monomethyl auristatin E conjugated to cetuximab via maleimidocaproyl-valine-citrulline linker, labelled with Cy5
- cell cycle profile (G2/M) [15]: did not influence the cell cycle profile
- binding by Cy5 fluorescence [16]: bound to EGFR expressing CAL-27, A549 and CALU3 cells with decreasing affinity
- pS10 of Histone H3 (G2/M marker) in tumours [8]: blocked MMAE anti-tubulin activity
- cytotoxicity (cell viability) [17]: restricted MMAE cytotoxicity to EGFR or HER2 expressing cells, respectively, and were much more potent than antibodies alone
- Cy5 signal accumulation in tumours [18]: did not
- time of Cy5 signal accumulation in tumour xenografts after injection ([19]; 0.5 nmol Cy5-labelled C-MMAE i.v.): up to 72 h
- influence of irradiation on ADC accumulation in tumours ([19]; 3 Gy 24 h after injection, imaged 24 h post IR): did not appreciably influence C-MMAE accumulation in tumours
- tumour MMAE concentrations [12]: confirmed restriction of released drug to EGFR+cells by cetuximab conjugation as opposed to trastuzumab conjugation
- accumulation in G2/M by pS10 Histone H3 staining [20]: increased accumulation in G2/M
- comet tail length after irradiation [14]: increased comet tail length to a similar degree
- Cy5 fluorescence localization [21]: localized to the cell surface and also was internalized
